From PubChem BioAssay AID504891 (National Center for Advancing Translational Sciences (NCATS), 2011)
This list holds what a sample rich in hits left over. Results filed as inconclusive are left out. The source made the active and inactive calls. Calls come from the whole dose curve; as a rule, active = well fitted inhibition curve with a large enough effect in the polarisation, with a control signal flat (not every such curve was filed as active); inconclusive = small, poorly fitted or top-dose-only effect, or effect the other way, or a change in a side signal; inactive = no such curve, though single readings can be large or run the other way; the % refers to the polarisation.

Sequences of proteins named here, by UniProt entry; tags and fusion partners are left off.
UniProt Q13526, whole entry, looked up: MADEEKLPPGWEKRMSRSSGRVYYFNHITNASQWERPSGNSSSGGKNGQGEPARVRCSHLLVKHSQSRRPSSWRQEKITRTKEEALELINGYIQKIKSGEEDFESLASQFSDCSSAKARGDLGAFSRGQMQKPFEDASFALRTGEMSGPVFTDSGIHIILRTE

molecular target: Peptidyl-prolyl cis-trans isomerase NIMA-interacting 1 (Homo sapiens) (UniProt Q13526); assay: qHTS Assay to Find Inhibitors of Pin1; conditions: Pin1 FP peptide displacement, HiFluor488, 10 min; at 115 µM (top of the series)
Source text: NIH Molecular Libraries Probe Production Network [MLPCN]
NIH Chemical Genomics Center [NCGC]
The unique chemical properties of Pro allow for the adoption of two completely distinct amide bond conformations (cis and trans). Peptidyl-prolyl cis/trans isomerases (PPIases) are evolutionary conserved enzymes that catalyze cis/trans isomerization of peptidyl-prolyl peptide bonds. Distinct from all other PPIases such as cyclophilins and FK506-binding proteins (FKBPs), Pin1 binds a subset of phos.Ser/Thr-Pro-containing proteins using its protein-targeting WW domain and isomerizes only specific phos.Ser/Thr-Pro bonds, which cannot be effectively catalyzed by other known PPIases. […]
The goal of this screen is to find small-molecule inhibitors of Pin1 using a fluorescence polarization competition assay. […]
Pin1 (0.6 uM) was dispensed into black, solid 1536-well plates at 2 uL/well in 10 mM HEPES (pH 7.5), 10 mM NaCl, 0.01% Tween20, 1 mM DTT, and 1% glycerol. […] The plates were measured on a ViewLux plate reader for fluorescence polarization signal using a 480/20 nM nm excitation filter and 540/25 nM nm S and P emission filters with a 20 second exposure. The %Activity was determined from the corrected fluorescence polarization values. […]
Concentration-response curves were fitted to the signals arising from the resulting fluorescence polarization. […]
% is set by controls: 0 for no effect and ±100 for the full control effect.

SMILES	activity, negative = inhibition
COc1ccc(CC(C)NCC(O)c2ccc(O)c(NC=O)c2)cc1 (stereo unspecified)	inactive: -1.39%
